The target in this experiment is T1, Fc region of trastuzumab (Homo sapiens, UniProt P01857).
T1 construct: made in house; host or cells: recombinant CHO cell lines
In words: Competitive FP binding assay against Fc-III-FAM. How it is done:
The competitive FP measurements were performed on SpectraMax Paradigm Multi-Mode Detection Platform (Molecular Devices) in flat-bottom 384-well Corning microplates (Merck KGaA), using excitation and emission wavelengths of 485 nm and 535 nm, respectively. The acquisition time was 700 milliseconds and the read height was 1 mm. All reagents used in the assay were diluted in PBS containing 0.05% Tween 20.
The mixture was incubated at 27° C. for 15 min and the fluorescence signal was red on a Spectramax Paradigm. All sample preparations were done in PBS pH 7.4 or 7.0 containing 0.05% Tween. Each experiment was performed in triplicate.
With `CC(C)C[C@@H]1NC(=O)[C@H](Cc2c[nH]cn2)NC(=O)[C@H](Cc2c[nH]c3ccccc23)NC(=O)[C@H](C)NC(=O)[C@@H](NC(=O)[C@@H](N)CC(=O)O)CSSC[C@@H](C(=O)N[C@H](C(N)=O)[C@@H](C)O)NC(=O)[C@H](Cc2c[nH]c3ccccc23)NC(=O)[C@H](C(C)C)NC(=O)[C@H](CC(C)C)NC(=O)[C@H](CCC(=O)O)NC(=O)CNC1=O` [Compound 1, reference compound], the IC50 stood at 58 ± 15 nM.
In the case of `CC(C)C[C@@H]1NC(=O)[C@H](Cc2c[nH]cn2)NC(=O)[C@H](Cc2c[nH]c3ccccc23)NC(=O)[C@H](C)NC(=O)[C@@H](NC(=O)[C@H](CC(=O)O)NC(=O)CCOCCOCCOCCOCCOCCOCCOCCOCCOCCOCCOCCOCCOCCOCCOCCN)CSSC[C@@H](C(=O)N[C@H](C(N)=O)[C@@H](C)O)NC(=O)[C@H](Cc2c[nH]c3ccccc23)NC(=O)[C@H](C(C)C)NC(=O)[C@H](CC(C)C)NC(=O)[C@H](CCC(=O)O)NC(=O)CNC1=O` [Compound 9] it was 69 ± 7 nM; in that of `CC(C)C[C@@H]1NC(=O)[C@H](Cc2c[nH]cn2)NC(=O)[C@H](Cc2c[nH]c3ccccc23)NC(=O)[C@H](C)NC(=O)[C@@H](NC(=O)[C@H](CC(=O)O)NC(=O)CCOCCOCCOCCOCCOCCOCCOCCOCCOCCOCCOCCOCCOCCOCCOCCOCCOCCOCCOCCOCCN)CSSC[C@@H](C(=O)N[C@H](C(N)=O)[C@@H](C)O)NC(=O)[C@H](Cc2c[nH]c3ccccc23)NC(=O)[C@H](C(C)C)NC(=O)[C@H](CC(C)C)NC(=O)[C@H](CCC(=O)O)NC(=O)CNC1=O` [Compound 10], 91 ± 12 nM.
The compound `CC(C)C[C@@H]1NC(=O)[C@H](Cc2c[nH]cn2)NC(=O)[C@H](Cc2c[nH]c3ccccc23)NC(=O)[C@H](C)NC(=O)[C@@H](NC(=O)[C@H](CC(=O)O)NC(=O)CCOCCOCCOCCOCCOCCOCCOCCOCCOCCOCCOCCOCCOCCOCCOCCOCCOCCOCCOCCOCCOCCOCCOCCOCCN)CSSC[C@@H](C(=O)N[C@H](C(N)=O)[C@@H](C)O)NC(=O)[C@H](Cc2c[nH]c3ccccc23)NC(=O)[C@H](C(C)C)NC(=O)[C@H](CC(C)C)NC(=O)[C@H](CCC(=O)O)NC(=O)CNC1=O` [Compound 11] returned an IC50 of 90 ± 7 nM.

Values taken from US20230046947A1, “REACTIVE CONJUGATES” (Debiopharm Research & Manufacturing S.A., priority 2019, published 2023).
